Biological target: OP-hAChE conjugates (Homo sapiens, UniProt P22303)
Test: Reactivation of OP-hAChE conjugates by 0.67 mM oxime (kobs)
Conditions: cyclosarin-hAChE conjugate

Protein sequences, listed by entry. Tags and fused reporters are not part of them. Residues count along the entry.
UniProt P22303, 32-578 limits assumed: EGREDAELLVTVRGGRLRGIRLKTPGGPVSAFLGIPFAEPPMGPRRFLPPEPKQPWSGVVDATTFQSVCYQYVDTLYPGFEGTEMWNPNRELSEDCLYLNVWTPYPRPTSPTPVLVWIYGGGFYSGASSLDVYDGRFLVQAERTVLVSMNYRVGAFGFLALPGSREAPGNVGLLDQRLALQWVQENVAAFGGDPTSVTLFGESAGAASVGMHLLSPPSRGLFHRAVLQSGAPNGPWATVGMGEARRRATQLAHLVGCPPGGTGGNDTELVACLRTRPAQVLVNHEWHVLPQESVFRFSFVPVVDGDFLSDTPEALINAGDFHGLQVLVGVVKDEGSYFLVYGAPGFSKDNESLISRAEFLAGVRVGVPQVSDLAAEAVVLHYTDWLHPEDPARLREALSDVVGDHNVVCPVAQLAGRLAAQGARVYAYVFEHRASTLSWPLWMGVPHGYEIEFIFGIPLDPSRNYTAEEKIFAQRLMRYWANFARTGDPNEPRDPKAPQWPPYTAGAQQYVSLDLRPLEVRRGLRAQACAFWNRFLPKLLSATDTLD

Q: `C[n+]1ccn(CCCc2ccccc2)c1C=NO.[I-]` was tested. Which “cyclosarin hAChE reactivation rate compared to 2PAM” value did it give?
A: comparable to 2PAM
